Antibody variant affinities, Ab-14 light chain, assay 1

Binding partner: SARS-CoV-2 spike HR2 peptide, sequence PDVDLGDISGINAS.

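The starting antibody came from a phage panning campaign against this peptide. AAYL50 was designed without a model: most single CDR substitutions and a random sample of double and triple ones. Affinity was read by AlphaSeq, a pooled yeast mating assay with surface-displayed partners. The frequency of each diploid, read from paired DNA barcodes, reflects how well the two displayed proteins bind. Scores were corrected for input abundance and mapped to Kd with protein pairs of known affinity run in the same pool. Mating was done three times.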

Each scFv is VH, the linker GGGGSGGGGSGGGGS, VL, as in the parent Ab-14, and differs from it in the CDRs of the light chain only.
VH: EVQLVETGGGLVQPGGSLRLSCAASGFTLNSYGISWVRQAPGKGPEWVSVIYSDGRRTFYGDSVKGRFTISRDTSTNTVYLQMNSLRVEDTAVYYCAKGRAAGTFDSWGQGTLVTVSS
VL: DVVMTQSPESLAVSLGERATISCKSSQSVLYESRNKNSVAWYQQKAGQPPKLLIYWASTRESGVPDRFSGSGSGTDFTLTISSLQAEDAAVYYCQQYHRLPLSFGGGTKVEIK

Changes read parent residue, position, new residue, counted from the first residue of the VL shown.
Affinities are written as log10 Kd with Kd in nM; a lower number is a better binder.
A mean of the replicates is given; it leaves out those without a signal.
"n.d." marks a missing value. The strain was present, yet no cells mated with the target were sequenced in that replicate, which points to weak or no binding.

changes	replicates, log10 nM	mean, log10 nM	control signals
V29C/R34Q/P101I	0.79 0.92 0.61	0.78	0/9
L30R/W56I	n.d. n.d. n.d.	n.d.	0/9
S62H/P101A	n.d. n.d. n.d.	n.d.	1/9 (3.04)
S33P/S58C/L102Y	n.d. n.d. n.d.	n.d.	1/9 (5.23)
K36W/V39P/L100Y	n.d. n.d. n.d.	n.d.	0/9
K36V/S38A/R99N	1.65 1.68 1.52	1.62	0/9
S25H/S38Y/T59M	1.75 1.71 1.85	1.77	1/9 (3.60)
S25G/L100R/L102D	n.d. n.d. n.d.	n.d.	1/9 (4.03)
S33A/S58M/T59H	n.d. n.d. n.d.	n.d.	2/9 (3.52)
E32V/N37M/S103L	n.d. n.d. n.d.	n.d.	0/9
Q27Y/K36S/R60L	1.67 1.64 1.49	1.60	2/9 (4.37)
K24R/N37K	1.62 1.76 1.87	1.75	6/9 (3.94)
N37H/R99A	1.34 1.53 1.51	1.46	3/9 (4.94)
S26N/Y97H/R99E	2.33 2.26 2.27	2.28	4/9 (3.90)
S28A/E32R/N35T	n.d. 2.26 2.86	2.56	0/9
S28P/S33W/E61C	1.21 1.29 1.38	1.29	6/9 (4.27)
S33P/N37E/A40G	n.d. 4.11 n.d.	4.11	0/9
Q27G/E61Y/Q95V	n.d. n.d. n.d.	n.d.	0/9
S26T/L102P/S103R	n.d. 3.65 n.d.	3.65	1/9 (3.77)
S28D/E32Y/W56L	0.70 0.76 0.97	0.81	1/9 (3.99)
K24D/Q27P/Q95R	n.d. 3.67 n.d.	3.67	1/9 (3.12)
S26N/S103M	n.d. n.d. n.d.	n.d.	1/9 (2.71)
W56F/S103C	1.97 1.74 1.96	1.89	2/9 (4.24)
V39C/T59S/H98S	4.29 n.d. n.d.	4.29	3/9 (3.87)
Y31P/R34H/H98C	n.d. 4.52 n.d.	4.52	2/9 (4.55)
S26P/S62G/Y97P	3.76 n.d. n.d.	3.76	0/9
S62F/R99E/L100K	n.d. n.d. n.d.	n.d.	0/9
V39K/A40M/L102Y	5.07 n.d. 5.05	5.06	3/9 (4.39)
Q27W/Q95S/L100I	5.33 n.d. n.d.	5.33	1/9 (4.49)
V39A/Y97F	n.d. n.d. 5.21	5.21	3/9 (4.38)
S25D/E32C/Q95A	4.91 n.d. n.d.	4.91	3/9 (4.42)
S25V/R60Q/Q96R	3.37 n.d. n.d.	3.37	0/9
Y31A/R34F/E61Y	0.02 0.34 0.19	0.18	6/9 (5.05)
S26W/Y97D/P101M	3.90 4.89 n.d.	4.40	0/9
S26N/Y31G/P101K	n.d. n.d. n.d.	n.d.	1/9 (3.30)
S25K/S28L/Q96Y	3.69 3.69 2.92	3.44	0/9

Excerpt, the first 2 entries:

changes	replicates, log10 nM	mean, log10 nM	control signals
V29C/R34Q/P101I	0.79 0.92 0.61	0.78	0/9
L30R/W56I	n.d. n.d. n.d.	n.d.	0/9

Three control strains display no target. For library AAYL50, 18% of the pairings with them gave a signal, with a median of 4.19 and one signal in twenty below 2.99, so weak values seen in few replicates may be background. The control count says in how many pairings with the empty strains this scFv gave a signal, with their mean in brackets.
In this assay the parent's reference entry averaged 0.65; its copy inside this library read 1.68.

Data: MIT Lincoln Laboratory AlphaSeq set, Engelhart et al. 2022, doi:10.1038/s41597-022-01779-4, as distributed in FLAb.